# PubChem BioAssay (NCI)
#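 Method: 48-hour compound exposure of cells in 96-well plates, five concentrations, linear interpolation of endpoints. GI50: concentration for 50% inhibition of growth. TGI is the concentration that stops growth completely.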
# System: MDA-MB-468 breast
# Assay: DTP human tumour cell line panel, 48 h
smiles,measurement,value
Cc1ccc(S(=O)(=O)n2cc([C@@]3(O)C[C@H](CC#N)OC3=O)c3ccccc32)cc1,GI50,2.81 µM
same,TGI,36.1 µM
